Results on one substance are retold here after patent US10435480.

Assay [1] concerns the target Rabbit anti-mouse IgG-AP conjugate (Sigma Cat. No. A3688) (rabbit). Kind of assay: control without mouse IgG: conjugate only (1/5000) on Protein A, hydrophobic plate.
Assay [2] deals with Mouse IgG (Sigma Cat No. 15381) (mouse). The experiment in a line: immunoassay, Protein A adsorbed on hydrophilic plate, mouse IgG 2 ug/mL, anti-mouse IgG-AP and PNPP; well 1.
For assay [3] the target is unchanged. Kind of assay: immunoassay, Protein A adsorbed on hydrophobic plate, mouse IgG 2 ug/mL, anti-mouse IgG-AP and PNPP; well 1.
Assay [4] has the same target. Kind of assay: immunoassay, Protein A adsorbed on hydrophobic plate, mouse IgG 2 ug/mL, anti-mouse IgG-AP and PNPP; well 2.
The target is the same in assay [5]. Kind of assay: immunoassay, Protein A adsorbed on hydrophilic plate, mouse IgG 2 ug/mL, anti-mouse IgG-AP and PNPP; well 2.
Assay [6] concerns the target Rabbit anti-mouse IgG-AP conjugate (Sigma Cat. No. A3688) (rabbit). Kind of assay: control without mouse IgG: conjugate only (1/5000) on Protein A, hydrophilic plate.

Consider “native Staphylococcus aureus Protein A (Sigma Cat. No. P7387) (from UniProt P38507 37-477)”, for which the A405 is 0.003 A405 in assay [1]; 1.26 A405 in assay [2]; 0.014 A405 in assay [3]; 0.01 A405 in assay [4]; 1.43 A405 in assay [5]; 0.025 A405 in assay [6].
